Patent US11912703B2, “6-azaindole compounds” (BRISTOL-MYERS SQUIBB COMPANY, priority 2017, dated 2024)

By UniProt entry, the sequences of proteins in these tests, tags left out. Residues count along the entry.
UniProt Q9NYK1, 27-1049 limits assumed: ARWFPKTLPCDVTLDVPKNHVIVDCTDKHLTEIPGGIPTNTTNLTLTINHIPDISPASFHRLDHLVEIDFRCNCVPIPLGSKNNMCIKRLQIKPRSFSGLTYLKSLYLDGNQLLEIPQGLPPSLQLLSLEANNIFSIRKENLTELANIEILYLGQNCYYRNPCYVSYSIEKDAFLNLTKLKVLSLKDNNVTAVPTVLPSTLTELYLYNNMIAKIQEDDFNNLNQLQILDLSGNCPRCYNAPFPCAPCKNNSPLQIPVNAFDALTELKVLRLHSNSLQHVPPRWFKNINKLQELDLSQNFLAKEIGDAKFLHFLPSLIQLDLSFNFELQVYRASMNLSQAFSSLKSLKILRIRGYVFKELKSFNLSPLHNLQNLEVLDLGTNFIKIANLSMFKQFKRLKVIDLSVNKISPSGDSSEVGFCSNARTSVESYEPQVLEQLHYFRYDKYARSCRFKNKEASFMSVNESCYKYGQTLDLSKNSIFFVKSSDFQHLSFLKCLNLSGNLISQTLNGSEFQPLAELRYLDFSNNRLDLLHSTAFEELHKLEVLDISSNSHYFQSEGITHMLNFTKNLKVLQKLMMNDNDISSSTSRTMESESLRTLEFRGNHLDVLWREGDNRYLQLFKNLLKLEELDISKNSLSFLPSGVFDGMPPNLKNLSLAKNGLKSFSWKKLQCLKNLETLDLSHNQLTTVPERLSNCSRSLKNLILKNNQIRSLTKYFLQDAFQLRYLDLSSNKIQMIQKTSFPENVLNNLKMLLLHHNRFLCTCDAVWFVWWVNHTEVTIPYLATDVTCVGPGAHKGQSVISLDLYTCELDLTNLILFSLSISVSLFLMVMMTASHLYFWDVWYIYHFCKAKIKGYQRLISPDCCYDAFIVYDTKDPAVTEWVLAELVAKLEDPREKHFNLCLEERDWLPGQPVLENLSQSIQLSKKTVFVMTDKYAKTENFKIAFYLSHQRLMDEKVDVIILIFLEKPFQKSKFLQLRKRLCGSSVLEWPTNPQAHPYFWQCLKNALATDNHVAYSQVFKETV
UniProt Q9NR96, 26-1032 limits assumed: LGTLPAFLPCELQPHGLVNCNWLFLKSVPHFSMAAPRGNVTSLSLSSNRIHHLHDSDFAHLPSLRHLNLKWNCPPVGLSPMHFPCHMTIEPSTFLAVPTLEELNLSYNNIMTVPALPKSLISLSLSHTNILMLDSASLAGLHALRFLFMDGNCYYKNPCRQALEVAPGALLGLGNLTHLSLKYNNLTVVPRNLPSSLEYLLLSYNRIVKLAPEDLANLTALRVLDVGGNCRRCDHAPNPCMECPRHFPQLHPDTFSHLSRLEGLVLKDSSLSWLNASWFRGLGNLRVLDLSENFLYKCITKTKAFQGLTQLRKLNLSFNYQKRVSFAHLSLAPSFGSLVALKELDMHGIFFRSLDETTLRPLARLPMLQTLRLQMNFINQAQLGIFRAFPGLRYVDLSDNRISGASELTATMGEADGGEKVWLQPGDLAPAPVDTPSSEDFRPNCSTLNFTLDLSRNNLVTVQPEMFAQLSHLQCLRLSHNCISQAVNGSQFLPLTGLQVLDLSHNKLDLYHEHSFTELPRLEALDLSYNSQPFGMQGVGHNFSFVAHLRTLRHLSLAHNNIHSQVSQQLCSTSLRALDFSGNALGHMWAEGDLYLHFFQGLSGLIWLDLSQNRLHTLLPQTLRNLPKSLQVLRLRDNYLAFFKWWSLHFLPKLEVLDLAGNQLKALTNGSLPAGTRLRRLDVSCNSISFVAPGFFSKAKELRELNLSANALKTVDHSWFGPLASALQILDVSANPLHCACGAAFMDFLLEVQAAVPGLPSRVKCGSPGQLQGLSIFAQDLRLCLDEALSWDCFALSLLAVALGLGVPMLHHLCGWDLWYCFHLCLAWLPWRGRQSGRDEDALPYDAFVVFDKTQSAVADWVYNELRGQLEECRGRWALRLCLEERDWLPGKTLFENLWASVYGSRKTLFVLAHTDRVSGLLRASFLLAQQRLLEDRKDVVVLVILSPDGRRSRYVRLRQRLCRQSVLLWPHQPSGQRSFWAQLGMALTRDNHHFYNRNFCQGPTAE
UniProt Q9NR97, 27-1041 limits assumed: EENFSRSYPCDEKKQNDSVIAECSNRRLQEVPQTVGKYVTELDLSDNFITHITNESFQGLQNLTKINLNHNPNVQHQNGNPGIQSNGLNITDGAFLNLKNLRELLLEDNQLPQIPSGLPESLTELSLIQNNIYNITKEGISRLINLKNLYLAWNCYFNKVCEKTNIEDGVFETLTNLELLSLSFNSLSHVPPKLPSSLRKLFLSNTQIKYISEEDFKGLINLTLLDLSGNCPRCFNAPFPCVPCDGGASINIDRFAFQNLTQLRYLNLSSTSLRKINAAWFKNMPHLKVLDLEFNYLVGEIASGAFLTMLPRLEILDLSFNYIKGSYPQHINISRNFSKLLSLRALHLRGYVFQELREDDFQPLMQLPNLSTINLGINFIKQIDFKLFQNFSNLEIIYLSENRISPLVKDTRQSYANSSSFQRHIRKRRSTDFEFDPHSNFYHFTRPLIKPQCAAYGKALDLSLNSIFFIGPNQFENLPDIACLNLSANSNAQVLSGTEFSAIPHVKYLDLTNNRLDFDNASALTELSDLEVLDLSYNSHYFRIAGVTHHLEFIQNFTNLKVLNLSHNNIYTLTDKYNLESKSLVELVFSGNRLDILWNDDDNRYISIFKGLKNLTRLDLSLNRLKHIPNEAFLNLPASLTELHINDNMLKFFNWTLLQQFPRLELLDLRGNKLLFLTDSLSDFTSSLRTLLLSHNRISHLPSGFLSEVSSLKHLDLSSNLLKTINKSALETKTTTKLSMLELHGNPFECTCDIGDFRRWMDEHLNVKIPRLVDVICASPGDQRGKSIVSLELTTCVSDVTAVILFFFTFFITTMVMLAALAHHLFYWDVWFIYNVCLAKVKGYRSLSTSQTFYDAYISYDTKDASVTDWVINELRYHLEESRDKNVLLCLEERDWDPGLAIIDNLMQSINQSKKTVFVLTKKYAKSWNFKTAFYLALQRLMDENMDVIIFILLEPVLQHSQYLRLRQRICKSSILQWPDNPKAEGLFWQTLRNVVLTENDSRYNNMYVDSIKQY

Assays:
human TLR7 = human TLR7 (Homo sapiens (Human), UniProt Q9NYK1); assay: TLR7 inhibition reporter assay (HEK-Blue SEAP); format: cell-based; conditions: read-out: TLR7 IC50, HEK-Blue cells overexpressing human TLR7, gardiquimod 7.5 μM stimulation
human TLR9 = human TLR9 (Homo sapiens (Human), UniProt Q9NR96); assay: TLR9 inhibition reporter assay (HEK-Blue SEAP); conditions: read-out: TLR9 IC50, HEK-Blue cells overexpressing human TLR9, ODN2006 5 nM stimulation;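 note: SEAP driven by IFN-β minimal promoter carrying five NF-κB and AP-1 sites, 22 h at 37 °C, compounds 0.05 nM–50 µM, inhibition scaled between agonist-plus-DMSO and reference-inhibitor wells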
human TLR8 = human TLR8 (Homo sapiens (Human), UniProt Q9NR97); assay: TLR8 inhibition reporter assay (HEK-Blue SEAP); conditions: read-out: TLR8 IC50, HEK-Blue cells overexpressing human TLR8, R848 15.9 μM stimulation;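 note: SEAP driven by IFN-β minimal promoter with five NF-κB and AP-1 sites, compounds tested 0.05 nM to 50 µM, 22 h incubation, inhibition relative to agonist plus DMSO wells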

CCN(C)C1CCC(c2ncc3[nH]c(-c4cn5ncnc5c(C)c4C)c(C(C)C)c3c2C)CC1 (stereo not drawn) [Example 143]
IC50 (human TLR7): 20 nM
IC50 (human TLR9): 1400 nM
IC50 (human TLR8): 31 nM
